Data on 2 molecules can be found in publication PMC1903359, “Engineering of PA-IIL lectin from Pseudomonas aeruginosa – Unravelling the role of the specificity loop for sugar preference” (BMC Structural Biology, 2007).

By UniProt entry, the sequences of proteins in these tests, tags left out. Residues count along the entry.
UniProt Q9HYN5, 2-115 S24A: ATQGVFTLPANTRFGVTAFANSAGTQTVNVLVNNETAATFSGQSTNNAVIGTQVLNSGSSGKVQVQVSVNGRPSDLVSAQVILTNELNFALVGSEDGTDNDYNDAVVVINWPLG

In general, Kd refers to the constant that tells how readily two partners part at equilibrium. High values mean a looser complex, low ones a tighter complex.

For assay [1], the system named is PA-IIL wild type. The note with it: ITC at 25°C, ref Sabin, C. et al, 2006 [14]; cited from earlier work.
In assay [2] the target is PA-IIL S23A (Pseudomonas aeruginosa, UniProt Q9HYN5, S24A). As to the kind of experiment: ITC binding of monosaccharides to PA-IIL mutant S23A. The conditions noted are these: ITC at 25°C; for ΔG: calculated from Ka.
Assay [3] has as its system RS-IIL. Also noted: method as in PMID 16768446. The note with it: ITC at 25°C, comparison data, Figure 7 gives ref 18; cited from earlier work.

Molecules are shown by their SMILES.

`CO[C@@H]1O[C@@H](CO)[C@@H](O)[C@@H](O)[C@@H]1O` [Me-α-L-Gal, methyl α-L-galactopyranoside]: the ΔG in assay [1] is listed as -33.8 (± 0.1) kJ/mol. In assay [2], the Kd amounted to 1.23 µM and the ΔG was -33.9 (± 0.4) kJ/mol. For the same molecule, the KA in assay [2] (0.1 M Tris-HCl, 30 μM CaCl2, pH 7.5) was 81.6 (± 14.4) ×10^4M^-1.

Regarding `CO[C@H]1O[C@H](CO)[C@@H](O)[C@H](O)[C@@H]1O` [Me-β-D-Man, methyl α-D-mannopyranoside], the ΔH in assay [3] is reported as -24.9 (± 0.2) kJ/mol. In addition, in assay [2], the Kd is 54 µM and the ΔG was -24.4 (± 0.4) kJ/mol.
